Measurements reported in patent US10851097B2, “4,5,6,7-tetrahydro-1H-imidazo[4,5-c]pyridine and 1,4,5,6,7,8-hexahydroimidazo[4,5-d]azepine derivatives as janus kinase inhibitors” (Topivert Pharma Limited, priority 2015, dated 2020).

Amino acid sequences for entries named in this document (tags omitted). Residues count along the entry.
UniProt P23458, 866-1154 limits assumed: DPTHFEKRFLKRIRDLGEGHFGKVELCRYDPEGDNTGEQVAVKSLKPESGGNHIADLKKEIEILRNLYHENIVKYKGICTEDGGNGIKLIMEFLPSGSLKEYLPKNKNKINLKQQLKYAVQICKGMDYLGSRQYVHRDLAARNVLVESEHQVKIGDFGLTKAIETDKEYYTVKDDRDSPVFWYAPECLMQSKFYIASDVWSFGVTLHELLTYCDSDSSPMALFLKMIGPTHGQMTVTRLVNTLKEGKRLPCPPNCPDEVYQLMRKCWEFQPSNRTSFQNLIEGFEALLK

Target: T1, JAK1 (Homo sapiens, UniProt P23458)
T1 construct: purchased DiscoveRx (LeadHunter Discover Services, KINOMEscan)
Assay: KINOMEscan enzyme binding assay (DiscoveRx), JAK1
Conditions: read-out: Dissociation Constant JAK1
Description: Kinase enzyme binding activities of compounds disclosed herein may be determined using a proprietary assay which measures active site-directed competition binding to an immobilized ligand (Fabian, M. A., et al., Nature Biotechnol. 2005, 23, 329-336). These assays may be conducted by DiscoveRx (formerly Ambit; San Diego, Calif.). The percentage inhibition produced by incubation with a test compound may be calculated relative to the non-inhibited control.

Kd: 2.7 nM
Structure (SMILES): CCc1cc(O)c(F)cc1-c1ccc2c(-c3nc4c([nH]3)CCN(C(=O)c3cnc(N5CCCCC5)cn3)C4)n[nH]c2c1 [Reference Compound, reference compound]
